How the values were obtained:
[1] = tested on: subcutaneous SKOV-3 xenograft; test: In vivo efficacy of anti-EGFR antibody-drug conjugate in xenograft nude mice
Method: Human cancer cell line SKOV-3 (ovarian adenocarcinoma) was implanted s.c. (3×10^6 cells in 50% matrigel) in one flank of female, adult Harlan HSD:athymic nude Foxn1^nu mice. The first dose of the test or control substances was administered when the tumors had grown to average volume of 100 mm^3 (4-8 mm diameter). Tumor length (L) and width (W) were recorded in mm. Tumor volumes (V) in mm^3 were calculated according to the formula V=½L×W^2. Mice with different sized tumors were equally divided into study groups to obtain homogenous groups.
Test and control substances were administered i.v. three times at seven days' intervals (Table 4).

[2] = tested on: head-and-neck squamous cell carcinoma cell line HSC-2 (EGFR+); test: In vitro cytotoxicity, HSC-2 cell viability; type: cell-based, Human
[3] = tested on: multidrug-resistant colorectal carcinoma cell line LS513 (EGFR+); test: In vitro cytotoxicity, LS513 cell viability; type: cell-based, Human; details: LS513 multi-drug resistant cells, FIG. 2C
Method: The compounds were assayed 1-2 times in triplicate.

[4] = tested on: Human ovarian cancer cell line SKOV-3; test: In vitro cytotoxicity, SKOV-3 cell viability (PrestoBlue); details: concentration range wherein viability falls to 50%, lower ends of ranges printed in pM
[5] = tested on: subcutaneous SKOV-3 xenograft; test: In vivo efficacy of anti-HER2 antibody-drug conjugates in xenograft nude mice; details: 10 mg/kg i.v. three times at seven days' intervals

anti-EGFR1 ADC: N-(6-propargyl-D-galactosyl)-dolastatin 10 conjugated to NHS-PEG4-N3-modified CHO cell produced cetuximab
tumor size (tumor volume) ([1]; 10 mg/kg i.v. three times at seven days' intervals, FIG. 4): Smallest tumors
anti-tumor activity in vivo ([1]; 10 mg/kg i.v. x3, subcutaneous SKOV-3 xenograft nude mice): showed anti-tumor activity

cetuximab-MODO
effectiveness compared with omalizumab antibody-drug conjugate or unconjugated cetuximab ([2]; HSC-2, FIG. 2A, concentrations normalized to monomethyldolastatin 10 content): more effective
effectiveness compared with unconjugated linker-dolastatin compound 12 ([2]; HSC-2, FIG. 2B): more effective
effectiveness compared with cetuximab-VC-MODO [3]: more effective

trastuzumab-MODO: trastuzumab-PEG4-N3 clicked with N-(6-propargyl-D-galactosyl)-dolastatin 10
IC50 [4]: 10 to 1000 pM

anti-HER2 ADC DAR=1: N-(6-propargyl-D-galactosyl)-dolastatin 10 conjugated to NHS-PEG4-N3-modified CHO cell produced trastuzumab, drug-antibody ratio 1
tumor growth inhibition compared with unconjugated anti-HER2 antibody and control treatment [5]: inhibited tumor growth more

anti-HER2 ADC DAR=3: N-(6-propargyl-D-galactosyl)-dolastatin 10 conjugated to NHS-PEG4-N3-modified CHO cell produced trastuzumab, drug-antibody ratio 3
tumor growth inhibition compared with unconjugated anti-HER2 antibody and control treatment [5]: inhibited tumor growth more
anti-tumor activity (tumor volume) ([5]; FIG. 3A): highest anti-tumor activity among the tested compounds

From US20150314007A1, “LINKER-PAYLOAD MOLECULE CONJUGATES” (GLYKOS FINLAND OY, priority 2012, published 2015)
